Experimental data reported in patent US20250154261A1 (published 2025).

Amino acid sequences for entries named in this document (tags omitted). Residues count along the entry.
UniProt P20138, 18-259 S128N: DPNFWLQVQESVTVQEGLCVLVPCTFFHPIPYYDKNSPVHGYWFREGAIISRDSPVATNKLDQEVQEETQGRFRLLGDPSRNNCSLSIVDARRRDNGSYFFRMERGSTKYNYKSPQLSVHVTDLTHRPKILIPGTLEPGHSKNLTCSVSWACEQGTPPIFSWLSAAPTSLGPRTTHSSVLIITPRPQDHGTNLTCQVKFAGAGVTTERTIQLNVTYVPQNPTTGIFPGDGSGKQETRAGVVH

Biological target: Human CD33 S128N (human, UniProt P20138 18-259)
Experiment: SPR captured Fab

B1: ADI-10173 Fab (Fab, V domains shown)
VH: QVQLVQSGAEVKKPGASVKVSCKASGYTFTSYYMHWVRQAPGQGLEWMGIINPSGGSTTYAQKFQGRVTMTRDTSTSTVYMELSSLRSEDTAVYYCAREAADGFVGERYFDLWGRGTLVTVSS
VL: not shown
notes: Fab fragment; also called Ab22
With B1 as the binder, how does the Kd read?
The Kd was 187 nM.

And the koff?
Its koff is 0.0342 s⁻¹.

What about the kon of the same binder?
Its kon is 183000 M⁻¹ s⁻¹.
